From paper PMC12828543, “Preclinical drug screen identifies WEE1 inhibitor and vinca alkaloid as a combination treatment concept for Li-Fraumeni syndrome medulloblastoma” (iScience, 2025)

Tested on: SJ-GBM2
Test: Validation in established cell lines (0.1-10,000 nM, triplicates, 72 h, CellTiter-Glo 2.0)
Type: cell-based
Conditions: Homo sapiens, read-out: SJ-GBM2 Emax
Description: . Following 72-hour exposure cell viability was measured using CellTiter-Glo 2.0 Assay (cat.no. G9241, Promega) and the Spark microplate reader (Tecan).
DSS3 (single drug screen and validation steps) and Emax (validation step only) were estimated based on four-parameter logistic curves.

C[C@@H]1COCCN1c1cc(-c2ccnn2C)c2ccnc(-c3ccn[nH]3)c2n1 [BAY-1895344]
Emax: 95.3%
